Results on one substance are retold here after patent US20020123056A1, “SGK2 and its uses” (priority 2000, published 2002).

The test system of this experiment is SGK2. The conditions noted are these: Hi5 insect cells expressing GST-SGK2 treated four hours at 27° C. (100 nM microcysteine, 99.8 nM okadaic acid, 49.8 nM calyculin A).

For the substance Calyculin A, the “No-Substrate (CCPM1)” value (purified GST-SGK2 assayed without substrate) is on record as 0 CCPM1. For the same substance, the “CapK sub(CCPM1)” value (substrate CapK sub 1 mg/ml, 15 minutes at room temperature) was 59335 CCPM1. Also, the “PKB sub (CCPM1)” value (substrate PKB sub 1 mg/ml, 15 minutes at room temperature) is on record as 92540 CCPM1.
